## Yeast mating assay B: variants of the scFv Ab-14

Source: Li et al. 2023 (doi:10.1038/s41467-023-39022-2), MIT Lincoln Laboratory and A-Alpha Bio; data file from the FLAb repository.

Target peptide (SARS-CoV-2 spike, HR2 region): PDVDLGDISGINAS

The variants keep the heavy chain, the linker and the frameworks of Ab-14 (scFv order VH, a (GGGGS)3 linker, VL).
VH: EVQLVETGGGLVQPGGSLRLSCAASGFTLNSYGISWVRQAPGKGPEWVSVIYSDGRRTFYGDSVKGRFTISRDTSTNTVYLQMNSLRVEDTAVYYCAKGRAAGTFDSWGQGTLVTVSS
VL: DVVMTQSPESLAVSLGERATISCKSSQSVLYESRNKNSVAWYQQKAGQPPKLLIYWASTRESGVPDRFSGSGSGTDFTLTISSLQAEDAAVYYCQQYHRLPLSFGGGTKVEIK

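Phage display of a naive human antibody library on the peptide gave the parent. This is the validation round: designs drawn from the data on random variants, tested in the same kind of assay. Group labels follow the data file (Ctrl: baseline library sampled from a position-specific scoring matrix, with some repeated check sequences; Rand: our label for a block that the file lists under HC and that is probably the random mutants of the ten best first-round binders; GP: Gaussian process model; GPLM: also part of the Gaussian process libraries; HC: hill climbing; Gen: genetic algorithm; a sequence that several methods proposed may carry one label only). The scFvs were displayed on barcoded MATa yeast, the peptide on MATalpha yeast. Pairs that bind mate more often; barcode pairs of the diploids are counted by sequencing. Read counts were normalised to the haploid input and turned into Kd by a linear fit to BCL2-family pairs of known affinity, for each replicate. There are six technical replicates.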

The whole VL of each variant is written out.
This list holds designs with at most six substitutions.
Scale: log10 of Kd in nM, estimated from mating counts; low values are strong binders.
"nd" means that the variant was in the library but no mating with the target was seen in that replicate; the authors take this as a sign of poor binding, and no number exists.
Nonspecific signal, from three strains lacking the peptide, appeared in 4% of pairings of all light chain designs, centred on 2.64 (5% of these signals below 1.59); values are not corrected for it.
A sequence that the file lists under several names has all its replicates listed entry by entry, parted by semicolons.
Of ten entries with the parent sequence, four were seen in most replicates (averages 0.34 to 2.37), three in one and three in none, so single entries are noisy.
In the paper, a design with two or fewer of six values counts as a poor binder.
Values of this round are not directly comparable with the first-round values of the same sequences.

| VL | group | replicates, log10 nM |
|---|---|---|
| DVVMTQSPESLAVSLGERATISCKLSQSVGYESRNKNSVAWYQQKAGQPPKLLIYEASQRESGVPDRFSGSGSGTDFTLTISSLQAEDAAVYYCQQYHRLPLSFGGGTKVEIK | GP_Gen | 0.22 -0.17 -0.12 -0.03 0.29 0.13 |
| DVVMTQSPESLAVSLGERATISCKQSQSVLYESRNKNSVAWYQQKAGQPPKLLIYMASTRESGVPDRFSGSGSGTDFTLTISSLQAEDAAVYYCQQYDRLPLSFGGGTKVEIK | GP_HC | 1.68 1.29 0.92 1.46 2.19 1.43 |
| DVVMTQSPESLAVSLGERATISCKSLQSVLYESRNKNSVAWYQQKAGQPPKLLIYHASQREDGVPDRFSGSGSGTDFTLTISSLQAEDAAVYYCQQYHRLPLSFGGGTKVEIK | GP_HC | 0.29 0.12 0.15 0.47 0.34 0.55 |
| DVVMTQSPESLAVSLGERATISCKQSQSVDYESRNKNSVAWYQQKAGQPPKLLIYDASTRESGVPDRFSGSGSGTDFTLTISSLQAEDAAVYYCQQYHRLPLDFGGGTKVEIK | GP_HC | 0.49 0.79 0.98 0.67 0.79 0.62 |
| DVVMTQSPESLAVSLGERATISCKTTQSVLYESRNKNSVAWYQQKAGQPPKLLIYKASTRESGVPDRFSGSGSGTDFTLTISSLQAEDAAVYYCQQYHRLPLIFGGGTKVEIK | Ctrl | 1.73 1.81 1.24 1.32 2.01 1.69 |
| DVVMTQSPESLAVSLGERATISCKSSESMLYESRNKNSVAWYQQKAGQPPKLLIYWASTRVSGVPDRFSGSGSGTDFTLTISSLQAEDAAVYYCQQYHRLPLSFGGGTKVEIK | Ctrl | 1.79 1.31 1.13 1.31 1.33 1.41 |
| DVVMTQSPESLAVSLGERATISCKLSQSQLYESRNKNSVAWYQQKAGQPPKLLIYNASTREKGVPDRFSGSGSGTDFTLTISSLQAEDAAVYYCQQYHRLPLSFGGGTKVEIK | GP_Gen | -0.09 -0.19 -0.30 -0.45 -0.31 -0.26 |
| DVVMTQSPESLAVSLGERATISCKSSQSFLYESRNVNSVAWYQQKAGQPPKLLIYGASTRLSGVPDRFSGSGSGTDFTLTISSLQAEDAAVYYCQQYHRLPLSFGGGTKVEIK | GP_HC | 1.12 0.59 0.48 0.98 1.15 0.58 |
| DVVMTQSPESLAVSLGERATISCKLSQSWLYESRNKNAVAWYQQKAGQPPKLLIYEASTRESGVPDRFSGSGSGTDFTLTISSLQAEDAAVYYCQQYHRLPLSFGGGTKVEIK | GP_Gen | 0.04 -0.14 -0.21 -0.24 -0.09 0.11 |
| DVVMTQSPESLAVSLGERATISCKVSQCVLYESRNKNSVAWYQQKAGQPPKLLIYMASTRESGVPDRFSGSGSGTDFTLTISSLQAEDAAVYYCQQYHRLPLSFGGGTKVEIK | GP_HC | 1.08 0.71 0.82 1.26 0.80 1.92 |
| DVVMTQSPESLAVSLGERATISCKQSQSVLYESRNKNNVAWYQQKAGQPPKLLIYMASTRESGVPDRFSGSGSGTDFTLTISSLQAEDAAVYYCQQYHRLPLSFGGGTKVEIK | GP_HC | 0.44 0.19 0.24 0.20 0.38 0.37 |
| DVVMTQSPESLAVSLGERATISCKLRQSWLYESRNKNSVAWYQQKAGQPPKLLIYNASTRESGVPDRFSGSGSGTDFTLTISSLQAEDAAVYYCQQYHRLPLSFGGGTKVEIK | GP_Gen | 0.43 0.37 0.43 0.14 0.43 0.39 |
| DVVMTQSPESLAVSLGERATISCASSVSVLYESRNKNSVAWYQQKAGQPPKLLIYWASTREQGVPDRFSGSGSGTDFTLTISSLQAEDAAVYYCQQYHRLPLSFGGGTKVEIK | Ctrl | nd nd nd nd 2.48 nd |
| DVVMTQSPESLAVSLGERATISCKLSQSWLYESRNKNSVAWYQQKAGQPPKLLIYNASYRESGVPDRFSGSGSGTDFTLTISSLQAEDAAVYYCQQYHRLPLSFGGGTKVEIK | GP_Gen | 0.18 0.02 0.02 -0.04 -0.08 0.29 |
| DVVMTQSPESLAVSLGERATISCKLQQSWLYESRNKNSVAWYQQKAGQPPKLLIYSASTREEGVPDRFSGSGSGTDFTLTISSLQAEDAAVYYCQQYHRLPLSFGGGTKVEIK | GP_HC | -0.20 -0.46 -0.49 -0.57 -0.42 -0.27 |
| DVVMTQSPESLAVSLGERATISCHLSDSVLYESRNKNSVAWYQQKAGQPPKLLIYNASTRESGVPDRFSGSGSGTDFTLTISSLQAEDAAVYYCQQYHRLPLVFGGGTKVEIK | GP_HC | 0.19 -0.03 -0.06 -0.25 -0.12 0.12 |
| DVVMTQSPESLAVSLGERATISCKLSQSVLYESRMKNNVAWYQQKAGQPPKLLIYNASQRESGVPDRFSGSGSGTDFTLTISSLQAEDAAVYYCQQYHRLPLSFGGGTKVEIK | GP_Gen | 0.17 0.32 -0.01 0.00 0.06 0.08 |
| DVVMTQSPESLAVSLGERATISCKLSQSDLYESRNKNAVAWYQQKAGQPPKLLIYEASTRESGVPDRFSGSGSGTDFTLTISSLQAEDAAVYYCQQYHRLPLSFGGGTKVEIK | GP_Gen | -0.03 -0.66 -0.56 -0.63 -0.92 -0.52 |
| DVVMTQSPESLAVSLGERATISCKLPQSVEYESRNKNSVAWYQQKAGQPPKLLIYNASTREVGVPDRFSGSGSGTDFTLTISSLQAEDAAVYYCQQYHRLPLSFGGGTKVEIK | GP_Gen | -0.19 -0.46 -0.42 -0.44 -0.42 -0.29 |
| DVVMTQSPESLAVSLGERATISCKLSQSVLYEQRNKNSVAWYQQKAGQPPKLLIYEASTRMSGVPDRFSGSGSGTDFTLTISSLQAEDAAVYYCQQYHRLPLSFGGGTKVEIK | GP_Gen | 0.13 0.11 -0.23 -0.05 -0.04 0.09 |
| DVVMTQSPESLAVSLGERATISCHFSPSTLYESRNKNSVAWYQQKAGQPPKLLIYNASTRESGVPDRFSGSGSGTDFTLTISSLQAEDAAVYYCQQYHRLPLSFGGGTKVEIK | GP_HC | -0.57 -0.62 -0.78 -0.73 -0.54 -0.42 |
| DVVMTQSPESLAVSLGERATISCKFSQSVLYESRNKNSVAWYQQKAGQPPKLLIYNASTRESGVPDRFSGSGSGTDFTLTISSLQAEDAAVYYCQQYHRLPLSFGGGTKVEIK | Ctrl+GPLM_HC | 0.03 -0.24 -0.38 -0.40 -0.25 0.04; 0.04 0.07 -0.14 -0.28 0.24 0.16 |
| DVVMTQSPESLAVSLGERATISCKLSQSVEYESRNKNSVAWYQQKAGQPPKLLIYNASTREMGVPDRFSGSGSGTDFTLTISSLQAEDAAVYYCQQYHRLPLSFGGGTKVEIK | GP_Gen | 1.41 0.69 1.15 1.05 0.55 0.80 |
| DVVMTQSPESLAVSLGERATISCKSLQSYLYESRNKTSVAWYQQKAGQPPKLLIYHASTREDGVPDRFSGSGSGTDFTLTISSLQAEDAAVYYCQYYHRLPLSFGGGTKVEIK | Rand | nd 2.68 2.47 2.49 3.30 nd |

The last 2 entries again:

VL	group	replicates, log10 nM
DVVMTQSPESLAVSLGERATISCKLSQSVEYESRNKNSVAWYQQKAGQPPKLLIYNASTREMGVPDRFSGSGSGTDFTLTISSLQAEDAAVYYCQQYHRLPLSFGGGTKVEIK	GP_Gen	1.41 0.69 1.15 1.05 0.55 0.80
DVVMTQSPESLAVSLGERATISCKSLQSYLYESRNKTSVAWYQQKAGQPPKLLIYHASTREDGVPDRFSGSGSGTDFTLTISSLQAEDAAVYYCQYYHRLPLSFGGGTKVEIK	Rand	nd 2.68 2.47 2.49 3.30 nd